The source of these data is PubChem BioAssay AID651965 (National Center for Advancing Translational Sciences (NCATS), 2013).

By UniProt entry, the sequences of proteins in these tests, tags left out.
UniProt P80244, whole entry: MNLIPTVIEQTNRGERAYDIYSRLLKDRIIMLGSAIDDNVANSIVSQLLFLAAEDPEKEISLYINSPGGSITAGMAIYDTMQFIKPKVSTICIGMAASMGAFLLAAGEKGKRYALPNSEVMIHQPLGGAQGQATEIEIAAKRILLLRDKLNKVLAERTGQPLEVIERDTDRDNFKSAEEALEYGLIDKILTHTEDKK

The structures appear in SMILES notation. The entries are a selection whose mix differs from that of the whole data set. Results filed as inconclusive are left out. Some salts and complexes are drawn in separate pieces, as the source files them; their charges need not balance. Active and inactive are the calls of the source. The call rests on the fitted dose curve; in most records, active means well fitted falling curve with a large enough effect; inconclusive means small, poorly fitted or top-dose-only effect; inactive means no such curve, though single readings can be large or run the other way.

For the assay, the target named is ATP-dependent Clp protease proteolytic subunit (Bacillus subtilis (strain 168)) (UniProt P80244). Kind of assay: qHTS Assay for Activators of ClpP. Further: the source files actives as falling curves though it sought activators and does not explain the sign; nearly all actives have a fitted effect of over 65% in size. To be noted: purified B. subtilis ClpP, FRET peptide cleavage, 20 min; series mostly up to 57.5 µM; activity change, negative = active: at the top concentration. On the technique in general: qHTS replaces the single test concentration by a dilution series.
As to `CCC(c1nnnn1C1CCCC1)N1CCC(n2c(=O)[nH]c3ccccc32)CC1` (configuration not stated), the “activity change, negative = active” value was inactive: -0.388%.

For `CC(C)(C)OC(=O)N1CCC(N(C(=O)c2ccccc2)c2ccc(F)cc2)CC1`, the “activity change, negative = active” value was inactive: 0.942%. With `O=C(NCC1(N2CCCCC2)CCCCC1)c1ccc(=O)[nH]c1`, the “activity change, negative = active” value was inactive: -0.307%.

Turning to `CCCCn1nnnc1C(c1cccs1)N1CCC(n2c(=O)[nH]c3ccccc32)CC1` (configuration not stated), the “activity change, negative = active” value was inactive: -2.81%.

With `CCCCn1nnnc1C(CC)N1CCC(n2c(=O)[nH]c3ccccc32)CC1` (configuration not stated), the “activity change, negative = active” value is inactive: 0.823%.

With `O=C(NCC1(N2CCCCC2)CCCCC1)c1cccs1`, the “activity change, negative = active” value was inactive: -3.57%.

On to `Cc1cccc(NC2(C#N)CCN(Cc3ccccc3)CC2)c1`, for which the “activity change, negative = active” value is inactive: -12.4%. In the case of `O=c1[nH]c2ccccc2n1C1CCN(C(c2ccccc2OC(F)(F)F)c2nnnn2C2CCCCC2)CC1` (configuration not stated) it was inactive: 1.77%; in that of `O=C(NCC1(N2CCOCC2)CCCCC1)c1cc2ccccc2o1`, inactive: -10.9%. In the case of `O=C(OC1CN2CCC1CC2)C1c2ccccc2Oc2ccccc21` (configuration not stated), the “activity change, negative = active” value is inactive: -10.2%. On to `O=c1[nH]c2ccccc2n1C1CCN(C(c2cc3ccccc3o2)c2nnnn2C2CCCCC2)CC1` (configuration not stated), for which the “activity change, negative = active” value was inactive: 0.322%.

As to `O=C(NCC1(N2CCCCC2)CCCCC1)c1ccc(Cl)s1`, the “activity change, negative = active” value was inactive: 0.978%.

On to `COc1ccc(Cl)cc1C(=O)NCC1(N2CCOCC2)CCCCC1`, for which the “activity change, negative = active” value was inactive: 0.427%. Take `CCOC(=O)N1CCC(Nc2ccc(OC)cc2)CC1`: the “activity change, negative = active” value is inactive: -6.12%. Regarding `CCCCn1nnnc1C(c1ccc(OC)cc1)N1CCC(n2c(=O)[nH]c3ccccc32)CC1` (configuration not stated), the “activity change, negative = active” value was inactive: -1.79%. Consider `CC(C)(C)n1nnnc1C(c1ccccc1)N1CCC(n2c(=O)[nH]c3ccccc32)CC1` (configuration not stated), for which the “activity change, negative = active” value was inactive: 2.05%. The result for `O=C(NCC1(N2CCOCC2)CCCCC1)c1ccc(Cl)cc1` reads inactive: 4.01%.

Regarding `O=C1CCN(Cc2ccccc2)CC1`, the “activity change, negative = active” value was inactive: 0.888%.

As for `CCOc1ccc(C)cc1CN(CCCl)CCCl`, the “activity change, negative = active” value is inactive: -0.784%.

For the compound `COc1ccccc1C(=O)NCC1(N2CCOCC2)CCCCC1`, the “activity change, negative = active” value is inactive: -1.95%.

`CCCCn1nnnc1C(c1cc2ccccc2o1)N1CCC(n2c(=O)[nH]c3ccccc32)CC1` (configuration not stated): the “activity change, negative = active” value is inactive: 2.3%.

As to `CCCCOc1ccc(C(=O)NCC2(N3CCOCC3)CCCCC2)cc1`, the “activity change, negative = active” value was inactive: 0.353%. With `COc1ccc(NC2CCN(CCc3ccccc3)CC2)c(OC)c1`, the “activity change, negative = active” value was inactive: -4.72%. In the case of `CCOC(=O)N1CCC(Nc2ccc(F)cc2)CC1` it was inactive: -6.31%; in that of `O=c1[nH]c2ccccc2n1C1CCN(C(c2ccccc2)c2nnnn2C2CCCCC2)CC1` (configuration not stated), inactive: 0.388%. In the case of `CCOC(=O)N1CCC(Nc2cccc(C)c2)CC1`, the “activity change, negative = active” value was inactive: 1.2%. `O=c1[nH]c2ccccc2n1C1CCN(C(c2cccc3ccccc23)c2nnnn2C2CCCC2)CC1` (configuration not stated): the “activity change, negative = active” value is inactive: -1.68%.

In the case of `CC(C)(C)n1nnnc1C(c1ccccc1OC(F)(F)F)N1CCC(n2c(=O)[nH]c3ccccc32)CC1` (configuration not stated), the “activity change, negative = active” value is inactive: 0.134%. Take `CCN1CCC(Nc2ccc(Cl)cc2)CC1`: the “activity change, negative = active” value was inactive: -0.358%. Consider `N#CC1(Nc2ccccc2)CCN(CCc2ccccc2)CC1`, for which the “activity change, negative = active” value was inactive: 0.815%. With `O=c1[nH]c2ccccc2n1C1CCN(C(c2ccccc2OC(F)(F)F)c2nnnn2C2CCCC2)CC1` (configuration not stated), the “activity change, negative = active” value is inactive: 3.11%. As for `CSc1ccc(C(=O)NCC2(N3CCOCC3)CCCCC2)cc1`, the “activity change, negative = active” value was inactive: 1.6%. As to `CCOc1ccc(C(=O)NCC2(N3CCOCC3)CCCCC2)cc1`, the “activity change, negative = active” value is inactive: -0.387%.

Consider `O=C(NCC1(N2CCCCC2)CCCCC1)c1cccc([N+](=O)[O-])c1`, for which the “activity change, negative = active” value is inactive: -2.71%. Take `CCCOc1cccc(C(=O)NCC2(N3CCOCC3)CCCCC2)c1`: the “activity change, negative = active” value is inactive: -1.93%. Consider `O=C(NCC1(N2CCOCC2)CCCCC1)c1cc(=O)[nH]c2ccccc12`, for which the “activity change, negative = active” value was inactive: -6.49%.

Take `CCCCn1nnnc1C(c1cccc2ccccc12)N1CCC(n2c(=O)[nH]c3ccccc32)CC1` (configuration not stated): the “activity change, negative = active” value was inactive: -1.86%. In the case of `COc1ccc(NC2CCN(C(=O)OC(C)(C)C)CC2)cc1`, the “activity change, negative = active” value was inactive: -3.11%. For `CC(C)c1ccc(C(=O)NCC2(N3CCOCC3)CCCCC2)cc1`, the “activity change, negative = active” value is inactive: 1.48%. In the case of `CCCCn1nnnc1C(c1ccccc1OC(F)(F)F)N1CCC(n2c(=O)[nH]c3ccccc32)CC1` (configuration not stated), the “activity change, negative = active” value is inactive: 4.49%.

Turning to `O=[N+]([O-])c1cc([N+](=O)[O-])c(OC2CCCCC2O)c([N+](=O)[O-])c1` (configuration not stated), the “activity change, negative = active” value is inactive: -10.7%.

Turning to `CN(C)c1cccc(C(=O)NCC2(N3CCCCC3)CCCCC2)c1`, the “activity change, negative = active” value is inactive: 0.845%. For `COc1cc(OC)c(C(=O)NCC2(N(C)C)CCCCC2)cc1OC`, the “activity change, negative = active” value is inactive: 3.79%. In the case of `CCC(c1nnnn1C(C)(C)C)N1CCC(n2c(=O)[nH]c3ccccc32)CC1` (configuration not stated), the “activity change, negative = active” value is inactive: 0.678%. The result for `O=C(NCC1(N2CCOCC2)CCCCC1)c1cc(F)c(F)cc1Cl` reads inactive: 0.364%; that for `CCN(CC)CCCNc1ccccc1[N+](=O)[O-].O=[N+]([O-])c1cc([N+](=O)[O-])c(O)c([N+](=O)[O-])c1`, inactive: 0.697%; that for `CCCCn1nnnc1C(c1ccnc2ccccc12)N1CCC(n2c(=O)[nH]c3ccccc32)CC1` (configuration not stated), inactive: 1.68%. The result for `O=C(NCC1(N2CCCCC2)CCCCC1)c1cncc(Br)c1` reads inactive: -2.61%; that for `COc1ccc2c(c1O)-c1c(O)c(OC)cc3c1[C@H](C2)[N+](C)(C)CC3.O=[N+]([O-])c1cc([N+](=O)[O-])c([O-])c([N+](=O)[O-])c1[O-]`, inactive: 3.1%.

Regarding `O=[N+]([O-])c1cc([N+](=O)[O-])c(Nc2ccc(Cl)cc2)c([N+](=O)[O-])c1`, the “activity change, negative = active” value is inactive: -0.605%.

Consider `COc1ccc(C(c2nnnn2C2CCCC2)N2CCC(n3c(=O)[nH]c4ccccc43)CC2)cc1` (configuration not stated), for which the “activity change, negative = active” value was inactive: -0.287%. The result for `Cc1ccc(C(=O)NCC2(N(C)C)CCCCC2)o1` reads inactive: -0.379%.
